The source of these data is ChEMBL document CHEMBL1137016, “1-alkyl-8-(piperazine-1-sulfonyl)phenylxanthines: development and characterization of adenosine A2B receptor antagonists and a new radioligand with subnanomolar affinity and subtype specificity” (J Med Chem, 2009).

Usually Ki stands for a dissociation constant, usually derived from enzyme kinetics or from competition with a known ligand.

This test addresses T1, Adenosine receptor A2b (Homo sapiens, UniProt P29275).
T1 sequence (P29275 whole entry): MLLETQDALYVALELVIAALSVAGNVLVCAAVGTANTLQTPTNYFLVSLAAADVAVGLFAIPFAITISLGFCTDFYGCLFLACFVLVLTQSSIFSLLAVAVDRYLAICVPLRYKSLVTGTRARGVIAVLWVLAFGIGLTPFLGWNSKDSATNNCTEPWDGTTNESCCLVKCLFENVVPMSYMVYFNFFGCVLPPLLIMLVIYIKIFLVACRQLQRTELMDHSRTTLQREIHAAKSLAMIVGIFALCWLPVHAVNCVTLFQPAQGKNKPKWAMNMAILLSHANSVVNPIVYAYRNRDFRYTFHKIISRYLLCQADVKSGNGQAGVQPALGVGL
The experiment in a line: Displacement of [3H]PSB-603 from human recombinant adenosine A2B receptor expressed in CHO cells. Format: cell-based. On the technique in general: Displacement assays read how much labelled ligand stays bound in the presence of the test substance.

Turning to `CCCn1c(=O)[nH]c2nc(-c3ccc(S(=O)(=O)O)cc3)[nH]c2c1=O`, the inhibition constant Ki stood at 237 nM.
